Assays:
[1] = biological target: human norepinephrine (NE) reuptake transporter (Homo sapiens, UniProt P23975); assay: functional uptake assay, human NE reuptake transporter; conditions: read-out: NE IC50 nM; Example 6 summary of selected in vitro data
[2] = biological target: human serotonin (5-HT) reuptake transporter (Homo sapiens, UniProt P31645); assay: functional uptake assay, human 5-HT reuptake transporter; conditions: read-out: 5-HT IC50 nM; Example 6 summary of selected in vitro data
[3] = biological target: human dopamine (DA) reuptake transporter (Homo sapiens, UniProt Q01959); assay: functional uptake assay, human DA reuptake transporter; conditions: read-out: DA IC50 nM; Example 6 summary of selected in vitro data

Chains of the proteins cited; added tags and fusions are not shown.
UniProt P23975, whole entry: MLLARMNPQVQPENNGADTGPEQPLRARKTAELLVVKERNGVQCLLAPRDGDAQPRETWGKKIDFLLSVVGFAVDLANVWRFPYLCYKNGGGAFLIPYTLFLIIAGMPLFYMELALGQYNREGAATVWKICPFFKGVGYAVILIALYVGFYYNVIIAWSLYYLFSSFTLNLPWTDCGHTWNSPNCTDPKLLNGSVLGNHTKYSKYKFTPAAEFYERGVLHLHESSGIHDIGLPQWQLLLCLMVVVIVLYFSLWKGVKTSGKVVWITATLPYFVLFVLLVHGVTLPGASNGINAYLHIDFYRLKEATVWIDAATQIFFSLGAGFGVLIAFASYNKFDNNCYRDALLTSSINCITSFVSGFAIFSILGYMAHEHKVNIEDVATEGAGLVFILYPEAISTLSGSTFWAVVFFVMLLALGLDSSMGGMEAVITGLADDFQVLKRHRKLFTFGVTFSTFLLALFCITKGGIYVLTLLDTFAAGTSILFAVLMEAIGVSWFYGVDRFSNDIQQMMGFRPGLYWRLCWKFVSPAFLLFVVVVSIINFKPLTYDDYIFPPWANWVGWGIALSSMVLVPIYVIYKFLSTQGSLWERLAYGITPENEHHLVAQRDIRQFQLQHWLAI
UniProt P31645, whole entry: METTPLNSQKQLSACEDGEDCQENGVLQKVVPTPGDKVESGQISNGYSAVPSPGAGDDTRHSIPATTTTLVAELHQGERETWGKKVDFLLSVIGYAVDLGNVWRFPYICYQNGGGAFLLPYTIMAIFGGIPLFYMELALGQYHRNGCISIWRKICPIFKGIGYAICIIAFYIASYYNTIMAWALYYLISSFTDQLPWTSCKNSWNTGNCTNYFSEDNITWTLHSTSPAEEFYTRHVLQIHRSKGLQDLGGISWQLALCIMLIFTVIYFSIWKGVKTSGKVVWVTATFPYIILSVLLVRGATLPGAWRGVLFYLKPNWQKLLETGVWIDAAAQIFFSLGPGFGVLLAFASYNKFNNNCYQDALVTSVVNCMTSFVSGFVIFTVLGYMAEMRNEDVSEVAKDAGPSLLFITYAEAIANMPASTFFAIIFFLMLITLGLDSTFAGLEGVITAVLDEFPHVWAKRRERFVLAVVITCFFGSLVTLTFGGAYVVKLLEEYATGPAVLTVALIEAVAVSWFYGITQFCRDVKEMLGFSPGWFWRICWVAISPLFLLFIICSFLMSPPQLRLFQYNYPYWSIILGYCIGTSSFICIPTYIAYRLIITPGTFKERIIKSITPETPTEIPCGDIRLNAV
UniProt Q01959, whole entry: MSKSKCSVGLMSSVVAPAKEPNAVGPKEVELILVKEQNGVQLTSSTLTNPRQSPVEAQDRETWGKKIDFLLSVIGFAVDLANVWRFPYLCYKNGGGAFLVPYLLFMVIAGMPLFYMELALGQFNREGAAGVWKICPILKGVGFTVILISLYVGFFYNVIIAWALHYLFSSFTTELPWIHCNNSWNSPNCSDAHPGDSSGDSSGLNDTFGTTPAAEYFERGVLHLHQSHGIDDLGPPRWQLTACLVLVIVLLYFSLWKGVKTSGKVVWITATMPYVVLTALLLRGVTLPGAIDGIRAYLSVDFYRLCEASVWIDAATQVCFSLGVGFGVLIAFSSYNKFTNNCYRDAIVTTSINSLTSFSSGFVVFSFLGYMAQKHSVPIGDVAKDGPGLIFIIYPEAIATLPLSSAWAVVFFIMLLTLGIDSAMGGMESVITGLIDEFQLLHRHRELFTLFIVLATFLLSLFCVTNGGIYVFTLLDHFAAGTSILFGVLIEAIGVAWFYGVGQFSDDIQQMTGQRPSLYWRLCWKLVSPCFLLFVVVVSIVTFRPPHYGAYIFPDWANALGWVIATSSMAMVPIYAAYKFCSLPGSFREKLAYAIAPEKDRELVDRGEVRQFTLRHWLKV

| SMILES | IC50 [1] [nM] | IC50 [2] [nM] | IC50 [3] [nM] |
| --- | --- | --- | --- |
| COC1(c2ccc(Cl)c(Cl)c2)CCCCC1CN(C)C (stereo not drawn) | 201 to 1000 | 2000 to 7000 | 10 to 200 |
| CN(C)C[C@@H]1CCCC[C@@]1(O)c1ccc(F)c(Cl)c1 (single isomer, unassigned) | 10 to 200 | 2000 to 7000 | 201 to 1000 |
| CN(C)C[C@H]1CCCC[C@]1(O)c1ccc(F)c(Cl)c1 (single isomer, unassigned) | 1000 to 5000 | 1 to 2000 | 5000 to 10000 |
| CNC[C@@H]1CCCC[C@@]1(OC)c1ccc(Cl)c(Cl)c1 (single isomer, unassigned) | 201 to 1000 | 2000 to 7000 | 10 to 200 |
| CO[C@@]1(c2ccc(Cl)c(Cl)c2)CCCC[C@H]1CN(C)C (single isomer, unassigned) | 201 to 1000 | 1 to 2000 | 10 to 200 |

Reference: patent US8669291B2, “Phenyl substituted cycloalkylamines as monoamine reuptake inhibitors” (Sunovion Pharmaceuticals Inc., priority 2007, dated 2014)
